Literature values in patent US8426398B2 (Emory University, priority 2009, dated 2013).

System: KB-31 folate receptor-positive tumors
Settings: mouse, in vivo; cited from earlier work

Substance: ^18F-FDG
- uptake in tumors (PET): negligible
